Measurements published in patent publication US8039432B2, “Method of treatment of diabetes and/or obesity with reduced nausea side effect” (Conjuchem, LLC, priority 2005, dated 2011).

System: male Sprague-Dawley rats
Assay: Conditioned taste aversion test (CTA)
Source text: One model for studying gastrointestinal malaise in response to administration of a test agent is the conditioned taste aversion test (Peeters and Broekkamp, 1994, J. Steroid Biochem. Mol. Biol., 49:417-427). Conditioned taste aversion is a form of associative learning in which animals learn to avoid flavors of substances where initial ingestion of the substance was followed by illness. In conditioned taste aversion, animals learn to associate a flavor, or conditioned stimulus, with the aversive effects of an administered agent, or unconditioned stimulus. Following conditioned stimulus—unconditioned stimulus pairings, animals reduce their consumption of the conditioned stimulus, and/or show a preference for other tastes when later presented with the conditioned flavor. […] The conditioned stimulus was 0.1% saccharin flavored water with high palatability. […]
Following injection, all groups were given food ad libitum and 2 bottles of water. At 72 h and 96 h post dose, a choice of tap water or 0.1% saccharin solution (conditioned stimulus) was offered, and intake of both solutions was measured for 12 hours. Mean saccharin preference ratios, representing the percentage of saccharin solution consumed relative to total liquid intake, were determined for each group (FIGS. 1 and 2).

Q: For “exendin-4(1-39) Lys^40 (ε-AEEA-MPA)-NH2 conjugated with albumin [CJC-1134-PC]”, which “saccharin solution consumption as share of total liquid intake (saccharin preference ratio)” value (0.5 nmol/kg SC, 12 h period beginning 72 h post dose) is on record?
A: Its value is “over 80%”.

Q: What about the “conditioned taste aversion (saccharin preference ratio compared to vehicle control)” value (rats, compared to vehicle control) of the same substance?
A: Its value is “None of the three CJC-1134-PC doses resulted in conditioned taste aversion”.
